Laboratory results taken from US20100297023A1, “Lipid” (priority 2006, published 2010).

Tested on: IFN response genes (OAS-1, IFN-β)
Assay: Interferon response in vivo, intrahepatic OAS1 and IFNβ mRNA
Conditions: 28 d post-administration, relative to saline control; poly I:C 6 h

## Poly I:C
  intrahepatic OAS1 and IFNβ mRNA (activation of IFN response): significantly different
